Earlier results as cited in patent US10905781B2, “Reporter platform for real time monitoring of drug efficacy” (THE BRIGHAM AND WOMEN'S HOSPITAL, INC., priority 2016, dated 2021).

Conditions: patients with a wild type KRAS; cited from earlier work

For “cetuximab: anticancer drug cited in the background”, the “patients who do not respond” value is listed as 40-60%.
